# According to patent US11185532B2, “Methods of treating pruritus” (Clexio Biosciences Ltd., priority 2019, dated 2021):
# Target: T1, Adrenergic 1A (Homo sapiens, UniProt P35348)
# T1 sequence (P35348 1-466): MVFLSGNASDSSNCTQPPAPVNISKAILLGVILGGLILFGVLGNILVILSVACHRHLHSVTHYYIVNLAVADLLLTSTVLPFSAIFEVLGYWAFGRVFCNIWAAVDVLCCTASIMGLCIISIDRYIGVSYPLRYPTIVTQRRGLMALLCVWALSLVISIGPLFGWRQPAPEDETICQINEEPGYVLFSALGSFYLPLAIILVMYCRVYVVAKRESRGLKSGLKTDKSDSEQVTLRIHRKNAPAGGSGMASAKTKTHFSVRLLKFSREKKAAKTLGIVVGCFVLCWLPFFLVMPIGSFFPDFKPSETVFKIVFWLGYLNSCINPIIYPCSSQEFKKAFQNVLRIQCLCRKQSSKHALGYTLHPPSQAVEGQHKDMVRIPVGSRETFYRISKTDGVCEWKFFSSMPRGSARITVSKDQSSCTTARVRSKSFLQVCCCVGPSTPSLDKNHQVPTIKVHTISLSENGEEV
# Assay: biochemical
structure (smiles),measurement,value
Clc1cccc(Cl)c1N=C1NCCN1 [clonidine],inhibition at 10 µM,91%
